One assay concerns the target ABHD2^L33–E425 (Homo sapiens, UniProt P08910). In words: ABHD2^L33-E425 fluorometric enzymatic activity assay with 7-HCA substrate. Type of assay: biochemical. To be noted: read-out: IC50, ABHD2^L33-E425, 7-HCA.
In assay [1] the target is T1, full-length human ABHD2 (ABHD2^FL) (Homo sapiens, UniProt P08910). The assay can be described thus: ABHD2^FL enzymatic activity assay with 7-HCA substrate. Type of assay: biochemical. The settings on record: read-out: IC50, ABHD2^FL, 7-HCA assay; 5 µM 7-HCA.
Assay [2] has as its target T1, full-length human ABHD2 (ABHD2^FL). The assay can be described thus: ABHD2^FL enzymatic activity assay with resorufin butyrate (RB) substrate. Type of assay: biochemical. The settings on record: read-out: IC50, ABHD2^FL, RB assay; 15 µM RB.
For the next assay, the system named is human sperm. To be noted: progesterone-induced; ref Miller et al. (2016); cited from earlier work.
Another assay has as its system CatSper. To be noted: ref Miller et al. (2016); cited from earlier work.

Data on one substance can be found in publication PMC13429874, “ABHD2 activity is not required for the non-genomic action of progesterone on human sperm” (Human Reproduction (Oxford, England), 2026).

One may read the IC50 as the concentration needed to halve the response being measured.

As to methyl arachidonyl fluorophosphonate, the 50% inhibitory concentration (IC50) amounted to 4.6 nM on ABHD2^L33–E425, 51 nM in assay [1] and 44 nM in assay [2]. The sperm hyperactivation entry in the assay on human sperm is “suppress”. Further, the “progesterone-induced CatSper activation, Ca2+ influx” value in the assay with CatSper is reported as “suppress”.
